IC50 data for six compounds are collected here from PMC6248884 (European journal of medicinal chemistry, 2018).

Holding throughout (assay type): cell-based
One experiment concerns SKBR3 cells (Her2+). Put plainly: Cell proliferation assay. The settings on record: read-out: SKBR3 IC50, Table 5.
A further experiment has as its system NCI-H460 cells. The experiment can be described thus: Cytotoxicity assay to NCI-H460 human lung carcinoma cells. The settings on record: NCI-H460, read-out: NCI-H460 IC50.
For another experiment, the system named is MDA-MB-231 cells (Her2-). Put plainly: Cell proliferation assay. The settings on record: read-out: MDA-MB-231 IC50, Table 5.

The term IC50 denotes the concentration that gives 50% inhibition. For Trastuzumab-LCS7-23, the IC50 in the experiment on SKBR3 cells (Her2+) turned out to be 0.53 nM.
In the case of Trastuzumab-LCS7-22, the IC50 in the experiment with SKBR3 cells (Her2+) worked out at 0.21 nM.
Consider “Trastuzumab-HCF404-MMAE [reference compound]”, for which the IC50 in the experiment with SKBR3 cells (Her2+) was 0.046 nM.
For the compound `CCCCCC(=O)N[C@H](C(=O)N[C@@H](CCS(=O)(=O)c1ccc(NC(=O)OC(C)(C)C)cc1)C(=O)N[C@@H](CC(C)C)C(=O)[C@@]1(C)CO1)C(C)C` [Analogue 13-Boc, tert-Butyl (4-(((S)-3-((S)-2-hexanamido-3-methylbutanamido)-4-(((S)-4-methyl-1-((R)-2methyloxiran-2-yl)-1-oxopentan-2-yl)amino)-4-oxobutyl)sulfonyl)phenyl)carbamate], the IC50 in the experiment with NCI-H460 cells was found to be 6.6 ± 0.3 nM.
For the compound “Trastuzumab-LCS7-MMAE [reference compound]”, in the experiment on SKBR3 cells (Her2+), the IC50 was determined as 0.003 nM.
As to Trastuzumab-HCF404-23, the IC50 with MDA-MB-231 cells (Her2-) is 10 nM.
